Reference: PMC10666288, “Unveiling the Catalytic Mechanism of a Processive Metalloaminopeptidase” (Biochemistry, 2023)

Test system: CC(C)C[C@H](NC(=O)[C@@H](NC(=O)[C@H](C)N)C(C)C)C(=O)N[C@@H](CCC(N)=O)C(=O)N[C@@H](CO)C(=O)NCC(=O)N[C@@H](Cc1ccccc1)C(=O)N[C@@H](CCCNC(=N)N)C(=O)N[C@@H](CCCCN)C(=O)N[C@@H](CCCCN)C(N)=O
Assay: purified protein, by the assay type
Conditions: other: progress curves of parent peptide fitted in Kintek Global Explorer, 1 μM PaPepA, 3 mM MnCl2; pH 8.0

PaPepA (Pseudomonas aeruginosa UCBPP-PA14)
Km: 155 µM
